Ab-95 light chain CDR variants: yeast mating affinities

Source: Engelhart et al. 2022 (doi:10.1038/s41597-022-01779-4), MIT Lincoln Laboratory and A-Alpha Bio; data file from the FLAb repository.

Target: peptide PDVDLGDISGINAS, taken from heptad repeat 2 (HR2) of SARS-CoV-2 spike.

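Phage display of a naive human antibody library on the peptide gave the parent. Library AAYL52 holds single substitutions and randomly drawn double and triple substitutions in the CDRs. The scFvs were displayed on barcoded MATa yeast, the peptide on MATalpha yeast. Pairs that bind mate more often; barcode pairs of the diploids are counted by sequencing. A regression on co-assayed BCL2-family reference pairs converts the normalised counts of each replicate to an apparent Kd. Mating was done three times.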

Parent scFv Ab-95: VH joined to VL by a (GGGGS)3 linker. Changes lie in the light chain CDRs alone.
VH: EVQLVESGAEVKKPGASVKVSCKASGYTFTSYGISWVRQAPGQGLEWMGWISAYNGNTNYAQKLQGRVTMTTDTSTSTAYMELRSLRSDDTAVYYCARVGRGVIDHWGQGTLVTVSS
VL: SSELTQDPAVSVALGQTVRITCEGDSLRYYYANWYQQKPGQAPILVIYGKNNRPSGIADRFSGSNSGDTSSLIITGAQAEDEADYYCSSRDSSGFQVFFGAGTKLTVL

Positions count from residue 1 of the parent VL; R28N puts N in place of R.
All variants listed here change N51 of the VL, counted from its first residue.
The read-out is the apparent dissociation constant on a log10 scale (nM): the lower, the stronger.
Averages over replicates are reported, and they cover detected replicates only.
"nd" means that the variant was in the library but no mating with the target was seen in any replicate; the authors take this as a sign of poor binding, and no number exists.
Nonspecific signal, from three strains lacking the peptide, appeared in 28% of pairings of library AAYL52, centred on 3.91 (5% of these signals below 2.90); values are not corrected for it.

changes	log10 Kd (nM), mean	replicates with signal
R28N N51W	nd	0/3
G49H N51W D91P	nd	0/3
N51W V97C	nd	0/3
N33G N51A N52M	2.36	3/3
R28M N51A D91Y	4.61	1/3
R28A A32P N51I	3.40	1/3
D25H N51C S55N	2.98	2/3
Y31G N51C Q96E	1.97	3/3
L27N N51T D91E	3.78	3/3
S26D N51M F95P	3.80	2/3
R28T Y31W N51Y	4.25	3/3
N51A S55E D91G	2.63	3/3
E23C N51P V97S	nd	0/3
Y30H A32S N51C	3.08	3/3
L27G Y31K N51L	4.43	3/3
Y29Q N51D V97L	3.43	3/3
S26C N51I F95I	nd	0/3
N51I S93M	4.08	3/3
E23F N51C S88V	3.89	2/3
L27Y Y29A N51M	3.72	1/3
L27C G49N N51C	4.71	2/3
N51Y P54N S55M	3.75	1/3
G24W N51V S89G	3.37	1/3
G49P N51I F98H	3.53	2/3
N33F N51E G94S	nd	0/3
Y29K N51A	2.28	3/3
Y29E K50W N51A	4.34	2/3
N51R S55H S93N	nd	0/3
N51R R90W S92C	2.87	3/3
N51Q	2.73	3/3
G24F N51S R90G	4.26	2/3
N51Y N52A V97W	nd	0/3
Y31L N51D S93C	2.42	3/3
K50A N51A R90D	3.41	2/3
N51G S88V F98N	3.64	2/3
N51C R53E S55P	3.68	1/3
N51W D91Q F95V	3.05	1/3
N51R	4.36	1/3
Y31L N51E R90H	2.94	3/3
G24T K50C N51Q	nd	0/3
N51V Q96I	3.66	3/3
N51P S55I	4.31	3/3
G24Q N51G P54T	3.96	1/3
N51Y S55H S89H	4.04	1/3
A32W N51T	3.54	1/3
Y29C Y31N N51V	3.91	3/3
E23M N51G R90N	2.07	3/3
S26K R28L N51W	nd	0/3
E23S N51H S93G	4.11	3/3
L27A N51V F98V	4.25	2/3
S26R N51F N52L	3.96	2/3
Y29S N51D R53T	3.18	3/3
Y29Q N51T F98T	3.76	3/3
R28F N51R G94N	3.82	2/3
Y31S N51P N52E	2.68	3/3
L27V N51H S89D	nd	0/3
N51Y R53I S93P	nd	0/3
N51V	3.29	3/3
N51D S89C Q96E	2.60	3/3
S26K N51T S88F	4.29	1/3
S26D K50V N51F	4.74	1/3
L27G N51L S93W	nd	0/3
N33E G49T N51A	3.51	1/3
K50Q N51D Q96W	2.40	3/3
N51C R53A R90P	4.47	2/3
D25C N51V	4.08	3/3
G49F N51Y	4.24	2/3
N51H D91L S93T	nd	0/3

In this assay the parent's reference entry averaged 2.31; its copy inside this library read 2.25.